According to patent US20250146007A1 (priority 2022, published 2025):

System: C. acnes wild type KPA171202
Assay type: cell-based, Cutibacterium acnes

Compound | growth of wild type C. acnes on FUDR plates | growth of wild type C. acnes on erythromycin plates
O=c1[nH]c(=O)n([C@H]2C[C@H](O)[C@@H](CO)O2)cc1F [FUDR, 5-fluoro-2′-deoxyuridine] | sensitive; also recorded: could only grow in absence; also recorded: could not grow | 
CC[C@H]1OC(=O)[C@H](C)[C@@H](O[C@H]2C[C@@](C)(OC)[C@@H](O)[C@H](C)O2)[C@H](C)[C@@H](O[C@@H]2O[C@H](C)C[C@H](N(C)C)[C@H]2O)[C@](C)(O)C[C@@H](C)C(=O)[C@H](C)[C@@H](O)[C@]1(C)O [ery, erythromycin] |  | sensitive

Entries after “also recorded” stand apart in the source; their conditions may differ.
